Article PMC8477500

Sequences of proteins named here, by UniProt entry; tags and fusion partners are left off. A change or cut given only in a name is not applied to a line headed by its entry. Residues count along the entry.
UniProt P56485: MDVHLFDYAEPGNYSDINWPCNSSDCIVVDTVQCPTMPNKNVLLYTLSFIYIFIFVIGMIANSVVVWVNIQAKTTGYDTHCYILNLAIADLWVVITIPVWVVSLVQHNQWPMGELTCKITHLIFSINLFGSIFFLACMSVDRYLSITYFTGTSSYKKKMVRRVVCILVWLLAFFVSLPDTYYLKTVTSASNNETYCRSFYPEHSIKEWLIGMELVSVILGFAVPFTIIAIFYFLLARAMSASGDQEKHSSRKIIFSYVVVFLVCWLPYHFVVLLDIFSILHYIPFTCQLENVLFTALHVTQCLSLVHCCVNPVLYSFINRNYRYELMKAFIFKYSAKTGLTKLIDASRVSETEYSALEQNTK
UniProt P48061, 22-89: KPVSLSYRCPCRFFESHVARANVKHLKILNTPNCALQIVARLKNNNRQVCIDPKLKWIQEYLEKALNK

Tests used:
[1] = target: mouse ACKR3 fused at its C-tail to the yellow fluorescent protein Venus (ACKR3-Venus) (mouse) (UniProt P56485)
[2] = target: mouse ACKR3 fused at its C-tail to the yellow fluorescent protein Venus (ACKR3-Venus) (mouse) (UniProt P56485); remark: listed apart in the source
[3] = target: mouse ACKR3 (atypical chemokine receptor 3), untagged (mouse) (UniProt P56485)

βarrestin2-RlucII recruitment to ACKR3-Venus (BRET1) in HEK-293 cells, 10 min, increasing concentrations of CXCL12; LogEC50 (log (unit of concentration not given)) [1]: -9.15 | βarrestin2-RlucII recruitment to the plasma membrane (rGFP-CAAX, ebBRET) in HEK-293 cells with ACKR3-Venus, 10 min, increasing concentrations of CXCL12; EC50 [2]: 2.2 nM | βarrestin2-RlucII recruitment to the plasma membrane (rGFP-CAAX, ebBRET) in HEK-293 cells with untagged ACKR3, 10 min, increasing concentrations of CXCL12; EC50 [3]: 1.9 nM
Substance: SDF-1α/CXCL12 (from UniProt P48061-2 22-89) (ligand)
